Converted amounts (≈) assume the structure as drawn.
Experiment: physchem
Settings: water, thermodynamic from solid

SMILES: CC(C)Cn1cnc2c(N)nc3ccccc3c21 [Imiquimod, 1-(2-methylpropyl)-1H-imidazo[4,5-c]quinolin-4-amine]
- solubility: 2.2 µg/mL (≈ 9.15 µM)

Reference: patent publication US11976065B2 (CELISTA PHARMACEUTICALS LLC, priority 2020, dated 2024)
